Assay results reported in ChEMBL document CHEMBL1139102, “Comparison of N,N'-diarylsquaramides and N,N'-diarylureas as antagonists of the CXCR2 chemokine receptor” (Bioorg Med Chem Lett, 2007).
pIC50: −log10 of the molar value.

Protein sequences, listed by entry. Tags and fused reporters are not part of them.
UniProt P25025, whole entry: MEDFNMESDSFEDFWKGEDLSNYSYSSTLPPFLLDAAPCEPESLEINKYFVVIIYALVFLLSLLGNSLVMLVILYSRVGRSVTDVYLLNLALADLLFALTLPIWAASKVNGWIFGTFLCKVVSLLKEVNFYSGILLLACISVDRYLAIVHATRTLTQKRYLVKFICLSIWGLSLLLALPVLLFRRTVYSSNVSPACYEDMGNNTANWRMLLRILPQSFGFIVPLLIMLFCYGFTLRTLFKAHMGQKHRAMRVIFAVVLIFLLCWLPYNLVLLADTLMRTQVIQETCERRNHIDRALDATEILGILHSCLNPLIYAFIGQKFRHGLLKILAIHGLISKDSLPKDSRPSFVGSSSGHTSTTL

Target: C-X-C chemokine receptor type 2 (Homo sapiens, UniProt P25025)
Test: Displacement of [125I]IL8 from human recombinant CXCR2 expressed in CHO cells
Format: cell-based

`O=C(Nc1ccc([N+](=O)[O-])cc1O)Nc1ccccc1Br` was tested, and the pIC50 was 7.66.
